Binding of CDR-mutated scFvs to a peptide of the spike HR2 region

Antigen: PDVDLGDISGINAS, a 14-residue peptide of the SARS-CoV-2 spike HR2 region.

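The starting antibody came from a phage panning campaign against this peptide. Variants in AAYL49 differ from the parent at up to three CDR positions; double and triple changes were sampled at random. AlphaSeq pools MATa yeast showing the antibodies with MATalpha yeast showing the peptide. The frequency of each diploid, read from paired DNA barcodes, reflects how well the two displayed proteins bind. Scores were corrected for input abundance and mapped to Kd with protein pairs of known affinity run in the same pool. There are three technical replicates.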

Parent: Ab-14, a human scFv built as VH, a 15-residue (Gly4Ser)3 linker, VL. Only the CDRs of the heavy chain vary.
VH: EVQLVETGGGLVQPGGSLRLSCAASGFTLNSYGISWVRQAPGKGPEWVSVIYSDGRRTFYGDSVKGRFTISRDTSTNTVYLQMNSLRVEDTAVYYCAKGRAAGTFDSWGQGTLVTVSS
VL: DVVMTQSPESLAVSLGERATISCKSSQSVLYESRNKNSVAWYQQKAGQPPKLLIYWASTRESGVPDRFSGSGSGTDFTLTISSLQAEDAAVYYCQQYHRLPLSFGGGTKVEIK

The parent's heavy chain CDRs are GFTLNSYGIS, VIYSDGRRTFYGDSVK, GRAAGTFDS; each variant's own CDRs replace them letter for letter.
Values are log10 of the apparent Kd in nM; lower means stronger binding.
A mean of the replicates is given; it leaves out those without a signal.
"nd" means that the variant was in the library but no mating with the target was seen in that replicate; the authors take this as a sign of poor binding, and no number exists.
Empty control strains, which show no peptide, gave a signal in 15% of pairings with library AAYL49; the median was 4.06 and 95% of these signals were weaker than 2.83. No background was subtracted. Also given: how often the same scFv was detected with the empty control strains, with their mean in brackets.
For reference, the parent read 0.65 as the reference entry and 4.11 (one replicate of three) as a member of this library.

| # | CDR-H1 | CDR-H2 | CDR-H3 | log10 Kd, replicates | log10 Kd (nM), mean | empty controls |
|---|---|---|---|---|---|---|
| 1 | GFTLNSYGIS | VIYFHGRRTFYGDSVK | GRAAGTFDW | nd / nd / nd | nd | 1/9 (3.27) |
| 2 | GFTLNSYGIS | VIYSDGRRDFFGDSVK | GRAAGTFDS | 4.70 / 4.85 / nd | 4.77 | 0/9 |
| 3 | GFQLNSYGIS | VIYSDGRRTFYGDSVK | GRAAGTFDS | 0.70 / 0.85 / 0.69 | 0.75 | 5/9 (4.87) |
| 4 | GFTLNSYQIS | VIYSDGRRTFYGDSVK | GIAAGMFDS | nd / nd / nd | nd | 3/9 (3.66) |
| 5 | GFTLNSYGIS | VIYSDGERTFMGDSVK | GRAAGTFWS | nd / nd / nd | nd | 1/9 (3.92) |
| 6 | GFTLNSYGIS | VIYSDGRRTFYGDSVS | GRAAGTFDS | 1.65 / 1.53 / 1.88 | 1.69 | 0/9 |
| 7 | GFTLFSYGIS | VIYSDGRRKFYGDSVK | GRAAGTFTS | nd / nd / nd | nd | 0/9 |
| 8 | GFTLNSYGIM | VIYSDGRCTVYGDSVK | GRAAGTFDS | nd / nd / nd | nd | 0/9 |
| 9 | GFTLMSYGIS | VIYSDKRRTFYGDSVK | GRAYGTFDS | nd / nd / nd | nd | 0/9 |
| 10 | GFTLNSYGIS | VIYSGGRRTFYGDSVK | GRAWGNFDS | nd / nd / nd | nd | 2/9 (3.91) |
| 11 | GFTLNSYFIS | VIYSDGRPTFYGDGVK | GRAAGTFDS | 5.20 / nd / 4.30 | 4.75 | 1/9 (2.28) |
| 12 | GFTLNSYGIS | VIYSDKRRTFYGDSVK | GRAAGCFDS | nd / nd / 4.45 | 4.45 | 4/9 (4.37) |
| 13 | GFTLNSYGIS | VIDSDGRRTFYGDSVK | GRNAGTFDS | nd / 4.64 / nd | 4.64 | 1/9 (4.30) |
| 14 | GQTIWSYGIS | VIYSDGRRTFYGDSVK | GRAAGTFDS | 3.47 / 3.16 / 3.57 | 3.40 | 4/9 (4.34) |
| 15 | GFTLNSYGIS | EIYSIGRRTFYGDSVK | GRAAGTFIS | nd / 4.10 / nd | 4.10 | 3/9 (4.52) |
| 16 | GFTLNSYGIS | VIYSDGRRTFYGDSVA | GRAAGTFDN | 1.27 / 1.56 / 1.57 | 1.47 | 1/9 (3.80) |
| 17 | GFTLNSYGIS | VIYSDGRRHFYGDSLC | GRAAGTFDS | nd / nd / nd | nd | 1/9 (2.24) |
| 18 | GFTLNSYGIY | VIYSYGRRTFYGDSVK | GRAAGTFDS | nd / nd / nd | nd | 1/9 (2.27) |
| 19 | GFDLNSYGIS | VIYSDGRHHFYGDSVK | GRAAGTFDS | 1.64 / 1.84 / 1.94 | 1.81 | 1/9 (4.08) |
| 20 | GFTLNSYGIS | VIYSDGRRTFYGDSVK | VRAAITIDS | nd / nd / nd | nd | 0/9 |
| 21 | GFTLNSYGIS | VIYPDWRRTFYGDSVK | GRAAGTFDN | 4.13 / 4.62 / 3.63 | 4.13 | 7/9 (4.95) |
| 22 | CFTLNSYGIS | VIYSDGRRTFYGDSVK | GRARNTFDS | 3.47 / nd / nd | 3.47 | 4/9 (3.92) |
| 23 | DFTLNSYGIS | VIYSDGRRTFYGDLVK | GRAAGTFDM | nd / nd / nd | nd | 0/9 |
| 24 | WFTLNSYCIS | VIYSDGRRTFYGDSVK | GRAAGVFDS | 4.00 / nd / nd | 4.00 | 1/9 (3.98) |
| 25 | GFTLQSYGIS | VIYSDGRRDFYGDSVK | GRAAGWFDS | nd / nd / nd | nd | 0/9 |
| 26 | GFTLNSYPIS | VIYSTGRRTFYGDSVK | GRAAGTFDS | nd / nd / nd | nd | 0/9 |
| 27 | VFTLNSYGES | VIYSDGRRTFYGDHVK | GRAAGTFDS | nd / nd / nd | nd | 1/9 (2.21) |
| 28 | GFTLNSYGIS | VIYSVGRRTFYGDSVK | GRAAGQFDS | 3.81 / nd / 5.15 | 4.48 | 0/9 |
| 29 | PFTLNSYGKS | VIYSDGRRTCYGDSVK | GRAAGTFDS | 4.51 / 3.62 / 4.16 | 4.10 | 3/9 (3.99) |
| 30 | GFCLNSYGIS | VMYSDGRRTFYGDSVL | GRAAGTFDS | 3.26 / 3.13 / 3.22 | 3.20 | 1/9 (4.01) |
| 31 | GFTLNSYGIS | VQYSDGRRAFYGDSQK | GRAAGTFDS | nd / nd / nd | nd | 0/9 |
| 32 | GFTLNSYGAS | VIYSDGRRTFYGDSVK | GRFKGTFDS | nd / nd / nd | nd | 0/9 |
| 33 | GFTLNSDGIS | VIYSDGRRTFYGDSVK | GPAAGTFDR | nd / nd / nd | nd | 1/9 (4.13) |
| 34 | GWTLNSYGIM | VIYSDGRRTFYGDSVK | GFAAGTFDS | nd / nd / nd | nd | 1/9 (3.72) |
| 35 | GFTLNSYGIS | VIYSDGRRTFYGDMMQ | GRAAGTFDS | nd / nd / nd | nd | 0/9 |
| 36 | GFTLNSYGIS | VIYEDPRRTFCGDSVK | GRAAGTFDS | nd / nd / nd | nd | 0/9 |
| 37 | GFTLNSYGIS | VWYSDGRRTFYGDSKK | VRAAGTFDS | nd / nd / 3.57 | 3.57 | 5/9 (4.47) |
| 38 | GFTLNSYGIS | VIYSDGRRTFKGDRVK | GRAAGTFDY | nd / nd / nd | nd | 0/9 |
| 39 | YFTLNAYGIS | VIYSDGRRTFYGDSVK | GRAAGTFDP | 5.04 / nd / 3.50 | 4.27 | 3/9 (3.42) |

The closing 2 entries, repeated:

CDR-H1	CDR-H2	CDR-H3	log10 Kd, replicates	log10 Kd (nM), mean	empty controls
GFTLNSYGIS	VIYSDGRRTFKGDRVK	GRAAGTFDY	nd / nd / nd	nd	0/9
YFTLNAYGIS	VIYSDGRRTFYGDSVK	GRAAGTFDP	5.04 / nd / 3.50	4.27	3/9 (3.42)

The measurements come from Engelhart et al. 2022 (doi:10.1038/s41597-022-01779-4) through the FLAb antibody collection.